Reference: patent US11583507B2, “Direct AMPK activator compounds” (SOCIETE DES PRODUITS NESTLE S.A., priority 2018, dated 2023)

Tests used:
C2C12 AMPKα1α2−/− cells = assay: Glucose uptake (3H-2-deoxyglucose) in differentiated C2C12 AMPKα1α2−/− cells; assay type: cell-based, murine; details: 30 or 100 μM Lusianthridin, 300 nM Insulin, 1 h at 37° C
From the text: (§1) In order to test whether the ability of Lusianthridin to increase glucose uptake in C2C12 myotubes is dependent on AMPK, we generated C2C12 cells lacking both isoforms of the catalytic AMPKα subunit, AMPKα1α2−/−. C2C12 AMPK α1α2 double knockout cell lines were generated by transient transfection of wild type cells with plasmids containing Cas9 enzyme linked to green fluorescent protein expression and Cas9 guide RNA sequences targeting the murine AMPK α1 subunit (sc-430618, SantaCruz) and the murine AMPK α2 subunit (sc-430803, SantaCruz). Cells positive for green fluorescent protein expression were single cell sorted by flow cytometry into 96-well plates containing growth medium and analysed for loss of AMPK signaling following expansion of the clones.
(§2) Differentiated C2C12 AMPKα1α2+/+ and AMPKα1α2−/− cells were treated with either vehicle (0.2% DMSO), 30 μM or 100 μM Lusianthridin for 1 h at 37° C. In addition, the insulin-dependent/AMPK-independent glucose uptake was also assessed by treating C2C12 cells with 300 nM Insulin for 1 h in the presence or absence of the 15 nM Wortmanin, an inhibitor of insulin-signalling. […]
(§3) Glucose uptake was determined by monitoring the uptake of 3H-2-deoxyglucose into cells. […] Cells were lysed and the quantity of ^3H determined in these samples using a scintillation counter. […]

C2C12 AMPKα1α2+/+ cells = assay: Glucose uptake (3H-2-deoxyglucose) in differentiated C2C12 AMPKα1α2+/+ cells; assay type: cell-based, murine
From the text: as §1, §2, §3

Insulin [reference compound]
glucose uptake (fold change relative to control) (C2C12 AMPKα1α2−/− cells): unaffected
glucose uptake (fold change relative to control) (C2C12 AMPKα1α2+/+ cells; C2C12 AMPKα1α2+/+, 30 or 100 μM Lusianthridin, 300 nM Insulin, 1 h at 37° C): increase in glucose uptake
effect of Wortmanin on stimulated glucose uptake (C2C12 AMPKα1α2+/+ cells; in the presence of 15 nM Wortmanin (1 h pre-incubation), 100 μM Lusianthridin or 300 nM Insulin, 1 h): abolished
